Test results taken from ChEMBL document CHEMBL2046351, “Discovery of cyclic sulfone hydroxyethylamines as potent and selective β-site APP-cleaving enzyme 1 (BACE1) inhibitors: structure-based design and in vivo reduction of amyloid β-peptides” (J Med Chem, 2012).

Chains of the proteins cited; added tags and fusions are not shown. Lines headed by an entry give the natural chain unless they say otherwise; changes in a name come on top.
UniProt P56817: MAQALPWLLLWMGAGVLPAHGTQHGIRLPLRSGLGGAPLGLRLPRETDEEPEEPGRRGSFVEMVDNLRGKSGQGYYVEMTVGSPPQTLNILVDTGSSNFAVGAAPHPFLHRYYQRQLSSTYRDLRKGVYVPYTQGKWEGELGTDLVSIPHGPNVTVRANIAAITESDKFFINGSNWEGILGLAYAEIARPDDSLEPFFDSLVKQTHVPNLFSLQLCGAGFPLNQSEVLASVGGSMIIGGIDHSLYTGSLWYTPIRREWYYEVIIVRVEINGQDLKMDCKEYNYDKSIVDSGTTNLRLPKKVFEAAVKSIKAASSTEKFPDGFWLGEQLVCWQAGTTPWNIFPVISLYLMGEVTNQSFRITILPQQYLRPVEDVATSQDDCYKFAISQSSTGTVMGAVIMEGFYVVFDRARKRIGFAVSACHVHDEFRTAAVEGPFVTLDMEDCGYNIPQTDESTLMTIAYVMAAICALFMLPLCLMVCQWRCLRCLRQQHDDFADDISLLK

Biological target: Beta-secretase 1 (Homo sapiens, UniProt P56817)

IC50: 0.14 µM
Compound: CC(C)(C)c1cccc(CN[C@H]2CS(=O)(=O)C[C@@H](Cc3cc(F)c4c(c3)C3(CCC(F)(F)CC3)CN4)[C@@H]2O)c1 (racemic)
